Source: patent publication US10544185B2 (Suzhou Zelgen Biopharmaceuticals Co., Ltd., priority 2015, dated 2020)

Molecular target: T1, farnesoid X receptor (FXR) (Homo sapiens, UniProt Q96RI1)
T1 sequence (Q96RI1 1-486): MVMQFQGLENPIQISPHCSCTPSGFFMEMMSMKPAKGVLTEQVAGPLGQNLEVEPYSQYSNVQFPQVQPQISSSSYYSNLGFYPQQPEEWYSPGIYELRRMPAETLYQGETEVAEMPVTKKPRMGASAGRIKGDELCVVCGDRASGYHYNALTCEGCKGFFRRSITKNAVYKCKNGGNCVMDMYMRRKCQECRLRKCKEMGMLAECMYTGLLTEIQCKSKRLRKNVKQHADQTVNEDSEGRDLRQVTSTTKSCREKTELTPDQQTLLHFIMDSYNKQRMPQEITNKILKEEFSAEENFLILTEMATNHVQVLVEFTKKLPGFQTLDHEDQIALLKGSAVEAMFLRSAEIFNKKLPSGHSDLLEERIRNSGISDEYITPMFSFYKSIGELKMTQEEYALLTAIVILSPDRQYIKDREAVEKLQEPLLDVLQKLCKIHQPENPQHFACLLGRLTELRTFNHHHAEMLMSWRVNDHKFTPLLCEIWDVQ
Test: Recruitment Coactivator Assay (AlphaScreen) for FXR activation
Type: biochemical
Conditions: read-out: activating activity (EC50) for FXR
Method: The farnesoid X receptor (FXR) activation of the compounds of the present invention is determined by Recruitment Coactivator Assay, i.e. AlphaScreen. Specific in vitro pharmacodynamic evaluation experimental program has referred to the literature J Pharmacol Exp Ther 350:56-68, July 2014.

## 3α, 7α-Dihydroxy-6α-(Ethyl-d4)-7-d-5β-Cholan-24-Oic Acid [Example 6]
  EC50: < 200 nM
